Test results taken from US12552694B2, “Use of trivalent metals to enhance aquatic pesticide efficacy, surface water, and sediment quality while minimizing risk to aquatic biota” (SePRO Corporation, priority 2022, dated 2026).

Assay: Example 1: capacity of additives to bind dissolved La and Ce (ICP-OES)
Assay type: physicochemical

In the case of sodium EDTA, the pH is reported as 9.5.
